pIC50: −log10 of the molar value.
What was measured:
[1] = target: EphA2 (Homo sapiens, UniProt P29317); test: EphA2 phosphorylation induced by ephrin-A1-Fc in PC3 cells; conditions: PC3 cells, 50, 25, 12, 6 μM, Figure 3
[2] = target: EphA2 receptor (Mus musculus, UniProt Q03145); test: ELISA displacement of ephrin-A1 binding from immobilized EphA2 receptor

Sequences of proteins named here, by UniProt entry; tags and fusion partners are left off. A line that says so, or that is headed by a name, gives the form on record, which may keep a tag or linker. Residues count along the entry.
UniProt P29317, 24-976: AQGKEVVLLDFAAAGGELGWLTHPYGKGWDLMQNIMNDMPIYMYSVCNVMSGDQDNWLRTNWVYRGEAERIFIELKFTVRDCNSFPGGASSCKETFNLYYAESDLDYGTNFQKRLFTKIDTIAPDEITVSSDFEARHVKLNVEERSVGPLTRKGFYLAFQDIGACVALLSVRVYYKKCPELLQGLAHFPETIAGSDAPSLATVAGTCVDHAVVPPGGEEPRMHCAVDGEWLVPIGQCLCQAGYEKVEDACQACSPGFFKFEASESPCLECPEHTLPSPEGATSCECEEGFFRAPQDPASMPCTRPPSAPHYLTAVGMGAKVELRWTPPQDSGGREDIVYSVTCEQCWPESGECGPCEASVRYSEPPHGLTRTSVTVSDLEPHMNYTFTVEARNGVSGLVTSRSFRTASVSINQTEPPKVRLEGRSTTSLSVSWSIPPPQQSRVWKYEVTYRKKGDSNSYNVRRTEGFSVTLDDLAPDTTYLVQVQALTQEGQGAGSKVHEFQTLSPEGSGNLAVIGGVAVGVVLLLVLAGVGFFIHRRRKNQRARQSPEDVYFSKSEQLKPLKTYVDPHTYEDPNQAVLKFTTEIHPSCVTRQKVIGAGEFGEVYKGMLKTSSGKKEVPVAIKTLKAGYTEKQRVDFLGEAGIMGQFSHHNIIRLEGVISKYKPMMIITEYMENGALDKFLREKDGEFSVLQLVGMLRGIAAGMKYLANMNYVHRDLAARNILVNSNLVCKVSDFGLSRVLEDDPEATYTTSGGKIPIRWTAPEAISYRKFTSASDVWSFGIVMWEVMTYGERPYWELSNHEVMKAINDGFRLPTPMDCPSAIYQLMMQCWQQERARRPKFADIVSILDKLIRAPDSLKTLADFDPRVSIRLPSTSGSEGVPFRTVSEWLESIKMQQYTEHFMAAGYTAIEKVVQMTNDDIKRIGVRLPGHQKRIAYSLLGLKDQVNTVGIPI
UniProt Q03145, with tags, fused parts or gaps limits assumed: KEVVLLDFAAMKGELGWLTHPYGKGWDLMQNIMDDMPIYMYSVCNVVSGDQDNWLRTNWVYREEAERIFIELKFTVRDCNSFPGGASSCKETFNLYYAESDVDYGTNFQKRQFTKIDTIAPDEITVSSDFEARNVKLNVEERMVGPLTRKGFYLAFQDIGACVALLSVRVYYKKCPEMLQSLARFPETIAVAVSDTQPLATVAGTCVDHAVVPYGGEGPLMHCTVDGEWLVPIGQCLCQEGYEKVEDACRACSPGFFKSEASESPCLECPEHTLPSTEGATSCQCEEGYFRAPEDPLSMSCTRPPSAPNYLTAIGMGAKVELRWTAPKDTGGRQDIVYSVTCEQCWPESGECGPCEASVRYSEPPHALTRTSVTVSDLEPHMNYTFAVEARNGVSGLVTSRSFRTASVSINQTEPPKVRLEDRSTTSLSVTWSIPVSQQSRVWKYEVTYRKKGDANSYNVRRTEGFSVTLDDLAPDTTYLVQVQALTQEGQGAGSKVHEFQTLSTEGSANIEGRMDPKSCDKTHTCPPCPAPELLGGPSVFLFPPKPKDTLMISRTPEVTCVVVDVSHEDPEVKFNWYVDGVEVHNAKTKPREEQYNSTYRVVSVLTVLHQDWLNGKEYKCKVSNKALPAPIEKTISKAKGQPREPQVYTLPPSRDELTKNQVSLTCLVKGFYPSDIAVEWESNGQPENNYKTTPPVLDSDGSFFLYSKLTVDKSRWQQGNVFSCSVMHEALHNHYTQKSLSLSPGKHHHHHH

C[C@H](CCC(=O)NCC(=O)O)[C@H]1CC[C@H]2[C@@H]3CC[C@@H]4CCCC[C@]4(C)[C@H]3CC[C@]12C [Compound 2, N-(5β-cholan-24-oyl)glycine]
inhibition of EphA2 phosphorylation relative to 1 (in words) [1]: less potent than 1
pIC50 [2]: 4.88

From PMC6270184, “Synthesis and Structure-Activity Relationships of Amino Acid Conjugates of Cholanic Acid as Antagonists of the EphA2 Receptor” (Molecules, 2013)
